In article PMC5803408 (Structure (London, England : 1993), 2018):
Substitutions are numbered along the chain they refer to.

Key:
Assay type in all cases: binding
[1] = molecular target: T1, human UHRF1 TTD-PHD dual domains (Homo sapiens, UniProt Q96T88); experiment: ITC, PBR peptide over TTD-PHD dual domains; settings: 25 mM Tris-HCl, pH 7.5, 100 mM NaCl, 25°C, Fig. 3E: average and standard deviation derived from two independent measurements
T1 sequence (Q96T88 126-366): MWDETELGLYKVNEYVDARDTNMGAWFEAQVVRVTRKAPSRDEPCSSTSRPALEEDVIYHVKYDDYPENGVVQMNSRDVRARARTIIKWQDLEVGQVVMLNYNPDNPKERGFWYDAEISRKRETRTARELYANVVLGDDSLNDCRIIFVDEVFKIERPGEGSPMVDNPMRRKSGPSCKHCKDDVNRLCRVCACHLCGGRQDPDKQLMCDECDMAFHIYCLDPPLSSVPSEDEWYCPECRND

[2] = test system: human UHRF1 TTD N194A; experiment: ITC, PBR peptide over TTD N194A mutant; settings: Fig. S2C, D
[3] = molecular target: T2, human UHRF1 TTD D142A/E153A (Homo sapiens, UniProt Q96T88, D142A/E153A); experiment: ITC, PBR peptide over TTD D142A/E153A double mutant
T2 sequence (Q96T88 126-284 D142A/E153A): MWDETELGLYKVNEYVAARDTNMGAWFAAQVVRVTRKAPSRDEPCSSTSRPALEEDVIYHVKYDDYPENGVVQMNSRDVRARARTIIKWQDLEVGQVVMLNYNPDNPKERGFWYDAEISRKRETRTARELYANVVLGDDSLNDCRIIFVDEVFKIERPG

[4] = molecular target: T3, human UHRF1 TTD F152A (Homo sapiens, UniProt Q96T88, F152A); experiment: ITC, PBR peptide over TTD F152A mutant; settings: versus wild-type TTD
T3 sequence (Q96T88 126-284 F152A limits assumed): T2 sequence (Q96T88 126-284 D142A/E153A) with A17D, F27A, A28E

[5] = molecular target: T4, human UHRF1 TTD D145A (Homo sapiens, UniProt Q96T88, D145A); experiment: ITC, PBR peptide over TTD D145A mutant; settings: versus wild-type TTD
T4 sequence (Q96T88 126-284 D145A limits assumed): T2 sequence (Q96T88 126-284 D142A/E153A) with A17D, D20A, A28E

[6] = test system: human UHRF1 TTD N147A; experiment: ITC, PBR peptide over TTD N147A mutant; settings: Fig. S2C, D
[7] = molecular target: T5, human UHRF1 TTD D142A (Homo sapiens, UniProt Q96T88, D142A); experiment: ITC, PBR peptide over TTD D142A mutant; settings: versus wild-type TTD
T5 sequence (Q96T88 126-284 D142A): T2 sequence (Q96T88 126-284 D142A/E153A) with A28E

[8] = molecular target: T6, human UHRF1 TTD E153A (Homo sapiens, UniProt Q96T88, E153A); experiment: ITC, PBR peptide over TTD E153A mutant; settings: versus wild-type TTD
T6 sequence (Q96T88 126-284 E153A): T2 sequence (Q96T88 126-284 D142A/E153A) with A17D

[9] = molecular target: T7, human UHRF1 TTD domain (Homo sapiens, UniProt Q96T88); experiment: ITC, PBR peptide titrated over TTD domain; settings: versus wild-type PBR
T7 sequence (Q96T88 126-284): T2 sequence (Q96T88 126-284 D142A/E153A) with A17D, A28E

For `C[C@H](NC(=O)[C@H](Cc1ccccc1)NC(=O)CNC(=O)CNC(=O)[C@@H](N)CCC(=O)O)C(=O)N[C@@H](CO)C(=O)N1CCC[C@H]1C(=O)N[C@@H](CCCNC(=N)N)C(=O)N[C@H](C(=O)NCC(=O)N[C@@H](CCCCN)C(=O)NCC(=O)N[C@@H](CCCCN)C(=O)N[C@@H](Cc1c[nH]c2ccccc12)C(=O)N[C@@H](CCCCN)C(=O)N[C@@H](CCCNC(=N)N)C(=O)N[C@@H](CCCCN)C(=O)N[C@@H](CO)C(=O)N[C@@H](C)C(=O)NCC(=O)NCC(=O)NCC(=O)N1CCC[C@H]1C(=O)N[C@@H](CO)C(=O)N[C@@H](CCCNC(=N)N)C(=O)N[C@@H](C)C(=O)NCC(=O)N[C@@H](CO)C(=O)N1CCC[C@H]1C(=O)N[C@@H](CCCNC(=N)N)C(=O)N[C@@H](CCCNC(=N)N)C(=O)N[C@H](C(=O)O)[C@@H](C)O)[C@@H](C)O` [PBR], the “weaker binding of PBR with TTD-PHD than with TTD” value [1] was ~ 3 fold, the “effect of TTD N194A on PBR binding” value [2] was “did not lead to appreciable change in the TTD – PBR binding” and the “effect of TTD D142A/E153A on PBR binding” value [3] was “nearly abolished the binding”. For the same molecule, the “reduction of binding affinity by TTD F152A” value [4] was > 3 fold, the “reduction of binding affinity by TTD D145A” value [5] was > 3 fold and the “effect of TTD N147A on PBR binding” value [6] was “did not lead to appreciable change in the TTD – PBR binding”. For the same molecule, the “reduction of binding affinity by TTD D142A” value [7] was > 3 fold and the “reduction of binding affinity by TTD E153A” value [8] was > 3 fold.

In the case of `C[C@H](NC(=O)[C@H](Cc1ccccc1)NC(=O)CNC(=O)CNC(=O)[C@@H](N)CCC(=O)O)C(=O)N[C@@H](CO)C(=O)N1CCC[C@H]1C(=O)N[C@@H](CCCNC(=N)N)C(=O)N[C@H](C(=O)NCC(=O)N[C@@H](CCCCN)C(=O)NCC(=O)N[C@@H](CCCCN)C(=O)N[C@@H](Cc1c[nH]c2ccccc12)C(=O)N[C@@H](CCCCN)C(=O)N[C@@H](C)C(=O)N[C@@H](CCCCN)C(=O)N[C@@H](CO)C(=O)N[C@@H](C)C(=O)NCC(=O)NCC(=O)NCC(=O)N1CCC[C@H]1C(=O)N[C@@H](CO)C(=O)N[C@@H](CCCNC(=N)N)C(=O)N[C@@H](C)C(=O)NCC(=O)N[C@@H](CO)C(=O)N1CCC[C@H]1C(=O)N[C@@H](CCCNC(=N)N)C(=O)N[C@@H](CCCNC(=N)N)C(=O)N[C@H](C(=O)O)[C@@H](C)O)[C@@H](C)O` [R649A], the “reduction of TTD – PBR binding by PBR mutation” value [9] is reported as ~ 20 fold.

For `C[C@H](NC(=O)[C@H](Cc1ccccc1)NC(=O)CNC(=O)CNC(=O)[C@@H](N)CCC(=O)O)C(=O)N[C@@H](CO)C(=O)N1CCC[C@H]1C(=O)N[C@@H](CCCNC(=N)N)C(=O)N[C@H](C(=O)NCC(=O)N[C@@H](CCCCN)C(=O)NCC(=O)N[C@@H](CCCCN)C(=O)N[C@@H](Cc1c[nH]c2ccccc12)C(=O)N[C@@H](CCCCN)C(=O)N[C@@H](CCCNC(=N)N)C(=O)N[C@@H](CCCCN)C(=O)N[C@@H](CO)C(=O)N[C@@H](C)C(=O)NCC(=O)NCC(=O)NCC(=O)N1CCC[C@H]1C(=O)N[C@@H](C)C(=O)N[C@@H](CCCNC(=N)N)C(=O)N[C@@H](C)C(=O)NCC(=O)N[C@@H](CO)C(=O)N1CCC[C@H]1C(=O)N[C@@H](CCCNC(=N)N)C(=O)N[C@@H](CCCNC(=N)N)C(=O)N[C@H](C(=O)O)[C@@H](C)O)[C@@H](C)O` [S657A], the “reduction of TTD – PBR binding by PBR mutation” value [9] was ~ 2 fold.
